Measured values as given in US11254986B2, “Gene signature for immune therapies in cancer” (ALMAC DIAGNOSTICS LIMITED, priority 2015, dated 2022).

Test system: RKO Parental and RKO FANCG-/- cells
Test: Lymphocyte (PBMC) mediated cytotoxicity, LIVE/DEAD Cell-Mediated Cytotoxicity Kit
Type: cell-based
Details: 5:1, FIG. 28
Procedure: The cytotoxic effects of lymphocytes on cancer cells was measured using LIVE/DEAD® Cell-Mediated Cytotoxicity Kit (Life technologies, Paisley, UK.) RKO parental and Fanc G cells were trypsinised, counted and stained with green-fluorescent membrane stain DiOC18 in PBS at a concentration of 2 μl of stain per ml. Cells were incubated with the stain for 20 minutes at 37° C. before being seeded into 12 well plates at a density of 1×10^5 cells per well and left to adhere overnight. The next day PMBCs were counted and added to RKO cell cultures at the ratios indicated. For 1:1 ratio 1×10^5 PBMCs were added, for 5:1 ratio 5×10^5 PBMCs were added. The co-cultures were incubated for 4 hours before cells were collected for analysis by flow cytometry. A BD FACSCalibur™ (BD Biosciences, CA, USA) was used for the analysis of samples and Flow Jo software was used for data analysis. Cells were treated with interferon-γ at a concentration of 20 ng/ml for 16 hours. Cells were treated with LEAF purified anti-human CD274 (Clone 29E.2A3) antibody (BioLegend, CA, USA) at a concentration of 100 μg/ml for 16 hours prior to addition of PBMCs.

PDL1 blocking antibody: LEAF purified anti-human CD274 (Clone 29E.2A3) antibody (BioLegend)
percentage cytotoxicity (PBMC mediated) (DDRD positive RKO FANCG-/- cells, Interferon-γ plus PDL1 antibody versus Interferon-γ alone, p<0.01): significantly more cytotoxicity | percentage cytotoxicity (PBMC mediated) (DDRD positive RKO FANCG-/- cells, Interferon-γ plus PDL1 antibody versus Interferon-γ alone, p<0.01, listed as blocking antibody to PDL-1): reverses resistance to PBMC mediated cytotoxicity | percentage cytotoxicity (PBMC mediated) (Parental RKO cells, IFN plus PDL1 antibody versus IFN alone): no significant difference in cytotoxicity
